Results: patent US20250019381A1, “PROCESS FOR THE […] OF 6-((3S,4S)-4-METHYL-1-(PYRIMIDIN-2-[…])PYRROLIDIN-3-YL)-3-(TETRAHYDROPYRAN-4-YL-7H-IMIDAZO[1,5-a]PYRAZIN-8-ONE” (Cardurion Pharmaceuticals, Inc., priority 2017, published 2025)

Assay: Blood Brain Barrier penetration: plasma and brain concentration
Assay type: in vivo

## C[C@@H]1CN(Cc2ncccn2)C[C@H]1c1nc2c(cnn2C2CCOCC2)c(=O)[nH]1 (relative stereo)
30 min
  Brain concentration after 30 minutes: 500 ng/mL
120 min
  Brain concentration after 120 minutes: 215 ng/mL
